Source: BindingDB's records for PubMed 10565829 (Loughborough University, 1999)

Amino acid sequences for entries named in this document (tags omitted).
UniProt P79291, whole entry: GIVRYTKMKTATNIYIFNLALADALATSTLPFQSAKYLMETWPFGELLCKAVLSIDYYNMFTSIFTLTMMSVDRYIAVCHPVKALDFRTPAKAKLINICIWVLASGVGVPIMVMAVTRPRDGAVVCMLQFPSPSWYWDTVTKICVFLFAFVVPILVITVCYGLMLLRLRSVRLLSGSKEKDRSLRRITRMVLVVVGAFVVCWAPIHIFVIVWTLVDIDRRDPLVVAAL

Biological target: Delta-type opioid receptor (Sus scrofa, UniProt P79291)

## CO[C@@]12CC[C@@]3(C[C@@H]1[C@@](C)(O)C(C)(C)C)[C@H]1Cc4ccc(O)c5c4[C@@]3(CCN1CC1CC1)[C@H]2O5 [BUPRENORPHINE]
  Ki: 1.3 nM
